Experiment: Caco-2 permeability assay
Format: in vitro ADME
Details: human, Caco-2, pH 7.2

Work on `Cc1ncsc1-c1ccc(CNC(=O)[C@@H]2C[C@@H](O)CN2C(=O)[C@@H](NC(=O)C2(F)CC2)C(C)(C)C)c(OCCOCCOCCN2CCN(c3cc(-c4ccccc4O)nnc3N)CC2)c1` [PROTAC 1, (2S,4R)-N-(2-(2-(2-(2-(4-(3-amino-6-(2-hydroxyphenyl)pyridazin-4-yl)piperazin-1-yl)ethoxy)ethoxy)ethoxy)-4-(4-methylthiazol-5-yl)benzyl)-1-((S)-2-(1-fluorocyclopropane-1-carboxamido)-3,3-dimethylbutanoyl)-4-hydroxypyrrolidine-2-carboxamide] yielded an efflux ratio of 190.
